Assay results taken from PMC9730901.

By UniProt entry, the sequences of proteins in these tests, tags left out. Residues count along the entry.
UniProt P08637, 17-208: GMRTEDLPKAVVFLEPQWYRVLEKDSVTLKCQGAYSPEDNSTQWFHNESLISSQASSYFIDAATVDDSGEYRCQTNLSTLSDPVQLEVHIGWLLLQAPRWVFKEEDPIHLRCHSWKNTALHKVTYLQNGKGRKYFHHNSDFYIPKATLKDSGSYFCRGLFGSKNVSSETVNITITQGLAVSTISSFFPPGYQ

Target: herceptin
Test: SPR; Biacore T200, CM5 chip; protein L amine-coupled (about 300 RU); antibodies (6 nM) captured on protein L; FcγRIa, FcγRIIa, FcγRIIIa injected at 1.66, 5, 15 nM, single-cycle, 60 s association, 600 s dissociation, HBS-EP, 22 °C

binding response (RU): 9 RU
Substance: recombinant FcγRIIIa (from UniProt P08637 17-208) (receptor)
